Legend:
erk1 = erk1 (Homo sapiens, UniProt P27361); test: erk1 kinase inhibition; format: biochemical; conditions: read-out: IC50 (additional kinases) erk1
cdc2/cyclinB = cdc2/cyclinB (UniProt P06493); test: cdc2/cyclinB kinase inhibition; format: biochemical; conditions: read-out: IC50 cdc2/cyclinB
GSK-3 = GSK-3 (Rattus norvegicus, UniProt P18266); conditions: read-out: IC50 (additional kinases) GSK-3

Protein sequences, listed by entry. Tags and fused reporters are not part of them.
UniProt P27361, whole entry: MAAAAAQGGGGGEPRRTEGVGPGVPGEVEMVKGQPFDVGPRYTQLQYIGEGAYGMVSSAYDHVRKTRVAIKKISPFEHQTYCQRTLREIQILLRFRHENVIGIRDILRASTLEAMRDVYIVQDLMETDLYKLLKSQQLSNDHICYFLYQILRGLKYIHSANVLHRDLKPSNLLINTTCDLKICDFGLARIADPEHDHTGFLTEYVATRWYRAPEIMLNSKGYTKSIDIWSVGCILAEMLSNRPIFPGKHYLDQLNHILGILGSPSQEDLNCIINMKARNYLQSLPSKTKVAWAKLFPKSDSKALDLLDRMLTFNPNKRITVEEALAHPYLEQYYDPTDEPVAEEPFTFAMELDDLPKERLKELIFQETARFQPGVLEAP
UniProt P06493, whole entry, looked up: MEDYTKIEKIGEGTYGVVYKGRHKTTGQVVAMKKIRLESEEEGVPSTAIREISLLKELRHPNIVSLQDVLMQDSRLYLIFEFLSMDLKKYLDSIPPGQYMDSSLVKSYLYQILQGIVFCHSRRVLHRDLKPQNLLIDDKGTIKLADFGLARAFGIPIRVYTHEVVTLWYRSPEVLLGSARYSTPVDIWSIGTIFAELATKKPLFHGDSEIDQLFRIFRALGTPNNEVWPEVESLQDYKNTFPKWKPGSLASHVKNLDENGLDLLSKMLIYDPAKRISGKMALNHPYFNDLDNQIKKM
UniProt P18266, whole entry: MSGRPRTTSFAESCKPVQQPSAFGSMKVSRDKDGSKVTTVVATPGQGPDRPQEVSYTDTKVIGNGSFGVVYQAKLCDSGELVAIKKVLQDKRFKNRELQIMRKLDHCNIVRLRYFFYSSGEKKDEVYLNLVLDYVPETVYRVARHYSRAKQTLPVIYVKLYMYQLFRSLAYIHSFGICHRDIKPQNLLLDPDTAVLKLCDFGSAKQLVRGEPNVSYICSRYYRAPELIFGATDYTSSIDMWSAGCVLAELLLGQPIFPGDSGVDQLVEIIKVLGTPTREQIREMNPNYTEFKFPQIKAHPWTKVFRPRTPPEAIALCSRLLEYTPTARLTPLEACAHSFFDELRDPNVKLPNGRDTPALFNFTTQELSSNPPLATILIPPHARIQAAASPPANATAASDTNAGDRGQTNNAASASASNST

COc1ccc(CNc2nc(NCCCNC(=O)[C@H]3CSC(=O)N3)nc3c2ncn3C(C)C)cc1
IC50 (erk1): 8 µM | IC50 (cdc2/cyclinB): 0.33 µM | IC50 (GSK-3): > 33 µM
